Our source for the Activity values is ChEMBL document CHEMBL5154866 (J Med Chem, 2022).

Amino acid sequences for entries named in this document (tags omitted). A change or cut given only in a name is not applied to a line headed by its entry.
UniProt Q02763: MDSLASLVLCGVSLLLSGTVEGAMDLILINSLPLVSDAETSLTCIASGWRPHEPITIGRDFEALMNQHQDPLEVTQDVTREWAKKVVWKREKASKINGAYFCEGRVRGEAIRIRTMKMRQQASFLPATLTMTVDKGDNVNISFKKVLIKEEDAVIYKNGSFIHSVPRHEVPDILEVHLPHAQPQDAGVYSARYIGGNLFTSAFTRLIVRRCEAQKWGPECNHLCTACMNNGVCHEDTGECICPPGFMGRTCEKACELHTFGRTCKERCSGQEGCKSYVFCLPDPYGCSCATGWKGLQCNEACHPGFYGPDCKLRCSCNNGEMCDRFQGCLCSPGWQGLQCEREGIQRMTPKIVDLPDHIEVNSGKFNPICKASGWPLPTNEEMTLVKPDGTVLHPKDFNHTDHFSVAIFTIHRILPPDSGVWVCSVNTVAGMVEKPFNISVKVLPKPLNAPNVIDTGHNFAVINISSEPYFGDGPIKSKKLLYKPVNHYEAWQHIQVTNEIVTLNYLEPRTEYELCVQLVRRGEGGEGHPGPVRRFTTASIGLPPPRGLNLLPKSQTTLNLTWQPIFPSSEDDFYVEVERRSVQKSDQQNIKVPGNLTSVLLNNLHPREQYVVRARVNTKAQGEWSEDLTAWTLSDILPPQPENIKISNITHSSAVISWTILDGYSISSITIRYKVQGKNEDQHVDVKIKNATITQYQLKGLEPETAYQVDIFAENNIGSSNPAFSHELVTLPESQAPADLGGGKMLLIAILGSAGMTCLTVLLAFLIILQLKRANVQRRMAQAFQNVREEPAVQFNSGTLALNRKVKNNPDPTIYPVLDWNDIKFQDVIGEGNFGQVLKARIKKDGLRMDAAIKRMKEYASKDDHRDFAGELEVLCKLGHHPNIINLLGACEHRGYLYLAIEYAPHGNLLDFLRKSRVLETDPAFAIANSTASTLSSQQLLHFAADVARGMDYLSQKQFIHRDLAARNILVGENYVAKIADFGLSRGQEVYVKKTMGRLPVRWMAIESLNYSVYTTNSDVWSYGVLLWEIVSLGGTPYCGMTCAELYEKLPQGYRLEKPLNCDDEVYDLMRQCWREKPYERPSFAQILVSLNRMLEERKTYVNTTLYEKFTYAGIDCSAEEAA
UniProt Q08345: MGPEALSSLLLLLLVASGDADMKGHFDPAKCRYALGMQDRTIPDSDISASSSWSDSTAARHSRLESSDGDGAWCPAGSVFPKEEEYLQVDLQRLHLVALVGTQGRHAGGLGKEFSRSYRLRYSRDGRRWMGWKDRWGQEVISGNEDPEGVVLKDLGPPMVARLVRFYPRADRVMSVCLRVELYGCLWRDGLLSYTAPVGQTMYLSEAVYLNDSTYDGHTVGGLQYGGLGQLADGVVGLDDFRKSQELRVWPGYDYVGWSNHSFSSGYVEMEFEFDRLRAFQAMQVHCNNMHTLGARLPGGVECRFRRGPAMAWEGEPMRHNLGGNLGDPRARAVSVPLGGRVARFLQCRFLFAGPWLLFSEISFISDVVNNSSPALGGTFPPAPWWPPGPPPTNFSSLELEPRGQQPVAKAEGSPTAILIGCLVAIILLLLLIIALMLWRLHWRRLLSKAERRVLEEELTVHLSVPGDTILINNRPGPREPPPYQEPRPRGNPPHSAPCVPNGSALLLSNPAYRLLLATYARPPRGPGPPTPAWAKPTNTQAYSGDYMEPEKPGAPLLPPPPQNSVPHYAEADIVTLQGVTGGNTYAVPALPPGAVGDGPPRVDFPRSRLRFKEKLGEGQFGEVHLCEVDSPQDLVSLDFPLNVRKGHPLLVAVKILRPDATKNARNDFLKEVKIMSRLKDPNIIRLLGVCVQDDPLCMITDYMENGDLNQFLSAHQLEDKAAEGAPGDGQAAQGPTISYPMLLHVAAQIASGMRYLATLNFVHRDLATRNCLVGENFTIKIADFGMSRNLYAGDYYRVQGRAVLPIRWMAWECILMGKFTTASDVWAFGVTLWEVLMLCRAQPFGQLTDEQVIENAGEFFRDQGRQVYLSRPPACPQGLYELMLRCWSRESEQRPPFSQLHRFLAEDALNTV
UniProt Q15375: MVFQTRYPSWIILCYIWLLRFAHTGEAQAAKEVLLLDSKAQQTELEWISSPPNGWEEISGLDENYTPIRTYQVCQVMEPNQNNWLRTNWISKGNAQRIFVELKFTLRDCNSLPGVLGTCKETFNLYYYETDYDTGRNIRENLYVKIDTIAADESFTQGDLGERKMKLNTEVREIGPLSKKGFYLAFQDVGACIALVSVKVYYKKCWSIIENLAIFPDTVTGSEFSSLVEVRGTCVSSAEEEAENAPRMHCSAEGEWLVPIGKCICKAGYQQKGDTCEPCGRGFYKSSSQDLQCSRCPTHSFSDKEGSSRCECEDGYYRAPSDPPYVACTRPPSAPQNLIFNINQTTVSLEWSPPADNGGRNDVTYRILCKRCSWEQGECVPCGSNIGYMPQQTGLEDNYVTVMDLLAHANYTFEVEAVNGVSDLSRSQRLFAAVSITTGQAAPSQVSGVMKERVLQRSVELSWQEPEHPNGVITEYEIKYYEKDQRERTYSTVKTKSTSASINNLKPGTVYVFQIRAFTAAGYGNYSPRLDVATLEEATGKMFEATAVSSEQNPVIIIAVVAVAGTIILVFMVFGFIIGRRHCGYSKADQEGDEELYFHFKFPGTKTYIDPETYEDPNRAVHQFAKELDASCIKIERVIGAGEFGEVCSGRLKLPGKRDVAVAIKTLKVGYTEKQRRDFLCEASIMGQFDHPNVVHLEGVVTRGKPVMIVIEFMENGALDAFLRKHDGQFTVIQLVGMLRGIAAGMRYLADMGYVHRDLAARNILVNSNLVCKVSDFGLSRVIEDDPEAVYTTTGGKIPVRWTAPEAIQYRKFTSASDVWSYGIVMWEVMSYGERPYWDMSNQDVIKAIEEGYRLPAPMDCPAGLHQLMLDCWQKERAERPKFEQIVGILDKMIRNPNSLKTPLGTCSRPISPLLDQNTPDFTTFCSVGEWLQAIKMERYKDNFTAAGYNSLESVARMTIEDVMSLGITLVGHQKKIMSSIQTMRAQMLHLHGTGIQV

For assay [1], the target named is Angiopoietin-1 receptor (Homo sapiens, UniProt Q02763). Put plainly: Inhibition human wild type partial length Tie2 (N804 to T1112 residues) expressed in bacterial expression system assessed as residual activity at 1 uM by Kinomescan method relative to control.
Assay [2] deals with Epithelial discoidin domain-containing receptor 1 (Homo sapiens, UniProt Q08345). Put plainly: Inhibition of human wild type partial length DDR1 (R565 to V876 residue) expressed in bacterial expression system assessed as residual activity at 1 uM by Kinomescan method relative to control.
Assay [3] deals with Ephrin type-A receptor 7 (Homo sapiens, UniProt Q15375). Put plainly: Inhibition of human wild type partial length EphA7 (Y608 to S912 residues) expressed in bacterial expression system assessed as residual activity 1 uM by Kinomescan method relative to control.

On to `Cc1cn(-c2cc(NC(=O)c3cc4cc(c3C)C#Cc3cnc5ccc(nn35)N(C)CCNC(=O)CCCCO4)cc(C(F)(F)F)c2)cn1`, for which the Activity is 9% in assay [1], 9% in assay [2] and 2% in assay [3].
